{
  "source": "patent US10100019B2",
  "data": [
    {"tested_on": "Ba/F3 EML4-ALK L1196M cells", "format": "cell-based, rodent", "conditions": "Ba/F3 EML4-ALK L1196M cells; method as Experimental Example 4; type of value not given", "units": {"BaF3 EML4 ALK L1196M": "µM"}, "values": [
      {"smiles": "COc1ccc(CCCN)cc1Nc1ncc(Cl)c(Nc2ccccc2S(=O)(=O)C(C)C)n1", "note": "[Example 41, N2-(5-(3-aminopropyl)-2-methoxyphenyl)-5-chloro-N4-(2-(isopropylsulfonyl)phenyl)pyrimidine-2,4-diamine]", "BaF3 EML4 ALK L1196M": 0.49},
      {"smiles": "COc1ccc(CC(N)=O)cc1Nc1ncc(Cl)c(Nc2ccccc2S(=O)(=O)C(C)C)n1", "note": "[Example 42, 2-(3-((5-chloro-4-((2-(isopropylsulfonyl)phenyl)amino)pyrimidine-2-yl)amino)-4-methoxyphenyl)acetamide]", "BaF3 EML4 ALK L1196M": 0.56},
      {"smiles": "CCOCCOC(=O)Cc1ccc(OC)c(Nc2ncc(Cl)c(Nc3ccccc3S(=O)(=O)C(C)C)n2)c1", "note": "[Example 43, 2-ethoxyethyl 2-(3-((5-chloro-4-((2-(isopropylsulfonyl)phenyl)amino)pyrimidine-2-yl)amino)-4-methoxyphenyl)acetate]", "BaF3 EML4 ALK L1196M": ">10"},
      {"smiles": "COc1ccc(CC(=O)O)cc1Nc1ncc(Cl)c(Nc2ccccc2S(=O)(=O)C(C)C)n1", "note": "[Example 44, 2-(3-((5-chloro-4-((2-(isopropylsulfonyl)phenyl)amino)pyrimidine-2-yl)amino)-4-methoxyphenyl)acetic acid]", "BaF3 EML4 ALK L1196M": ">10"},
      {"smiles": "COc1ccc(CC(=O)N2CCOCC2)cc1Nc1ncc(Cl)c(Nc2ccccc2S(=O)(=O)C(C)C)n1", "note": "[Example 45, 2-(3-((5-chloro-4-((2-(isopropylsulfonyl)phenyl)amino)pyrimidine-2-yl)amino)-4-methoxyphenyl)-1-morpholinoethane-1-one]", "BaF3 EML4 ALK L1196M": 10},
      {"smiles": "COc1ccc(CC(=O)N2CCCCC2)cc1Nc1ncc(Cl)c(Nc2ccccc2S(=O)(=O)C(C)C)n1", "note": "[Example 46, 2-(3-((5-chloro-4-((2-(isopropylsulfonyl)phenyl)amino)pyrimidine-2-yl)amino)-4-methoxyphenyl)-1-(piperidine-1-yl)ethane-1-one]", "BaF3 EML4 ALK L1196M": 10},
      {"smiles": "COc1ccc(CC(=O)N2CCNCC2)cc1Nc1ncc(Cl)c(Nc2ccccc2S(=O)(=O)C(C)C)n1", "note": "[Example 48, 2-(3-((5-chloro-4-((2-(isopropylsulfonyl)phenyl)amino)pyrimidine-2-yl)amino)-4-methoxyphenyl)-1-(piperazine-1-yl) ethane-1-one]", "BaF3 EML4 ALK L1196M": 1.3},
      {"smiles": "COc1ccc(CC(=O)Nc2ccncc2)cc1Nc1ncc(Cl)c(Nc2ccccc2S(=O)(=O)C(C)C)n1", "note": "[Example 49, 2-(3-((5-chloro-4-((2-(isopropylsulfonyl)phenyl)amino)pyrimidine-2-yl)amino)-4-methoxyphenyl)-N-(pyridine-4-yl)acetamide]", "BaF3 EML4 ALK L1196M": 10},
      {"smiles": "COc1ccc(CC(=O)Nc2ccccc2)cc1Nc1ncc(Cl)c(Nc2ccccc2S(=O)(=O)C(C)C)n1", "note": "[Example 50, 2-(3-((5-chloro-4-((2-(isopropylsulfonyl)phenyl)amino)pyrimidine-2-yl)amino)-4-methoxyphenyl)-N-phenylacetamide]", "BaF3 EML4 ALK L1196M": 10},
      {"smiles": "COc1cc(Br)c(CCN)cc1Nc1ncc(Cl)c(Nc2ccccc2S(=O)(=O)C(C)C)n1", "note": "[Example 51, N2-(5-(2-aminoethyl)-4-bromo-2-methoxyphenyl)-5-chloro-N4-(2-(isopropylsulfonyl)phenyl)pyrimidine-2,4-diamine]", "BaF3 EML4 ALK L1196M": 1.6},
      {"smiles": "COc1cc(-c2cnn(C)c2)c(CCN)cc1Nc1ncc(Cl)c(Nc2ccccc2S(=O)(=O)C(C)C)n1", "note": "[Example 52, N2-(5-(2-aminoethyl)-2-methoxy-4-(1-methyl-1H-pyrazole-4-yl)phenyl)-5-chloro-N4-(2-(isopropylsulfonyl)phenyl)pyrimidine-2,4-diamine]", "BaF3 EML4 ALK L1196M": 0.49},
      {"smiles": "COc1cc(CC#N)c(C)cc1Nc1ncc(Cl)c(Nc2ccccc2S(=O)(=O)C(C)C)n1", "note": "[Example 53, 2-(4-((5-chloro-4-((2-(isopropylsulfonyl)phenyl)amino)pyrimidine-2-yl)amino)-5-methoxy-2-methylphenyl)acetonitrile]", "BaF3 EML4 ALK L1196M": 0.19}
    ]}
  ]
}
